Experimental findings from ChEMBL document CHEMBL5725257, “Augmenting moieties for anti-inflammatory compounds” (2016) are described below.

Chains of the proteins cited; added tags and fusions are not shown. Residues count along the entry.
UniProt O42275, 24-633 limits assumed: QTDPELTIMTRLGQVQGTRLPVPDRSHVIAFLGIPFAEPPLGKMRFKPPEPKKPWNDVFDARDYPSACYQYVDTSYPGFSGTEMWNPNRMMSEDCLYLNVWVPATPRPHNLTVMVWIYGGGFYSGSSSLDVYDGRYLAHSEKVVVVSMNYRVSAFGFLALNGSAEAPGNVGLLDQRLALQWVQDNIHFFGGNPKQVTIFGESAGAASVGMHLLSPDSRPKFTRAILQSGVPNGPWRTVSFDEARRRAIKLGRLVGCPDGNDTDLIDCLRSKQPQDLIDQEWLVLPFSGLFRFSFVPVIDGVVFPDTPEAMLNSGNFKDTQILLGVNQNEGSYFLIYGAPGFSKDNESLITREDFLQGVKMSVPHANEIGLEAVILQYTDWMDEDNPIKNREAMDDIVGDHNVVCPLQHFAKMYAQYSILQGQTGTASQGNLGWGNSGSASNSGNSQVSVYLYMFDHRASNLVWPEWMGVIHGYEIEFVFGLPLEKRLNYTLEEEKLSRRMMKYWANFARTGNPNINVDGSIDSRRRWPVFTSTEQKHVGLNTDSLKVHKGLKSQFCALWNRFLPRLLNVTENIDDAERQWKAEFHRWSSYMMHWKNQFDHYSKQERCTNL

In this test the target is Acetylcholinesterase (Electrophorus electricus, UniProt O42275). Put plainly: Ellman Assay: The modified Ellman assay for inhibition of acetylcholinesterase (AChE) and the mouse ear vesication assay (MEVA) have been described in detail by us (see S. C. Young et al, J Appl Tox, 2012, 32: 135-141). AChE (Type V-S from electrophorus electricus), acetylthiocholine iodide (ATChI), 5,5′-dithiobis(2-nitrobenzoic acid) (DTNB) and tacrine from EMD Chemicals (Gibbstown, N.J.). Cholin.
Compound `CC(C)Cc1ccc(C(C)C(=O)N[C@@H](Cc2ccccc2)C(=O)OCCC(C)(C)C)cc1` (stereo partly specified) yielded a half-maximal inhibitory concentration (IC50) of 4.34 µM. In other words, the single-digit micromolar range.

Compound `COc1ccc2cc([C@H](C)C(=O)N[C@H](C(=O)OCCC(C)(C)C)C(C)C)ccc2c1` had an IC50 of 18.6 µM.

Compound `CC(C)Cc1ccc(C(C)C(=O)N[C@H](C(=O)OCCC(C)(C)C)C(C)C)cc1` (stereo partly specified) came in with a half-inhibitory concentration (IC50) of 8.91 µM.

The compound `CC(C)Cc1ccc(C(C)C(=O)NCC(=O)OCCC(C)(C)C)cc1` (stereo unspecified) had a half-maximal inhibitory concentration (IC50) of 27.9 µM. This IC50 lies about 3.1-fold higher than the previous one.

`CC(C)(C)CCOC(=O)[C@@H]1CCCN1C(=O)Cc1ccccc1Nc1c(Cl)cccc1Cl` displayed a concentration for half-maximal inhibition (IC50) of 15.4 µM.

Regarding `COc1ccc2c(c1)c(CC(=O)NCC(=O)OCCC(C)(C)C)c(C)n2C(=O)c1ccc(Cl)cc1`, the midpoint of inhibition, the IC50, lay at 6.63 µM.
